Assays:
[1] = tested on: VWF-055 (VWF D′D3-Fc with 34 amino acid long little a2 linker)
[2] = tested on: VWF-051 (VWF D′D3-Fc with a linker of 54 amino acids comprising a thrombin cleavage site of A-L-R-P-R-V-V)
[3] = tested on: VWF-039 (VWF D′D3-Fc with thrombin + PAR1 site 26 amino acid long linker)
[4] = tested on: VWF-056 (VWF D′D3-Fc with 46 amino acid long little a3 linker)
[5] = tested on: VWF-054 (VWF D′D3-Fc with 40 amino acid long little a1 linker)

human alpha-thrombin
ratio of slopes (thrombin-mediated cleavage rate in RU/s against capture density in RU, Biacore) relative to VWF-031 [1]: slopeVWF-055/slopeVWF-031 is 65 | ratio of slopes (thrombin-mediated cleavage rate in RU/s against capture density in RU, Biacore) relative to VWF-031 [2]: slopeVWF-051/slopeVWF-031 is 1.8 | ratio of slopes (thrombin-mediated cleavage rate in RU/s against capture density in RU, Biacore) relative to VWF-031 [3]: SlopeVWF-039/slopeVWF-031 is 71 | thrombin cleavage rate relative to VWF-031 (Biacore, release of D′D3 from captured construct) [3]: approximately 70-80-fold faster than VWF-031 (LVPR) | thrombin cleavage (Biacore, release of D′D3 from captured construct) [4]: ˜5-fold reduced thrombin cleavage | thrombin cleavage (Biacore, release of D′D3 from captured construct) [5]: ˜5-fold reduced thrombin cleavage

Source: patent US20160229903
